{
  "sequences": {"note": "Sequences of proteins named here, by UniProt entry; tags and fusion partners are left off. Residues count along the entry.", "UniProt P13612, 34-1032 limits assumed": "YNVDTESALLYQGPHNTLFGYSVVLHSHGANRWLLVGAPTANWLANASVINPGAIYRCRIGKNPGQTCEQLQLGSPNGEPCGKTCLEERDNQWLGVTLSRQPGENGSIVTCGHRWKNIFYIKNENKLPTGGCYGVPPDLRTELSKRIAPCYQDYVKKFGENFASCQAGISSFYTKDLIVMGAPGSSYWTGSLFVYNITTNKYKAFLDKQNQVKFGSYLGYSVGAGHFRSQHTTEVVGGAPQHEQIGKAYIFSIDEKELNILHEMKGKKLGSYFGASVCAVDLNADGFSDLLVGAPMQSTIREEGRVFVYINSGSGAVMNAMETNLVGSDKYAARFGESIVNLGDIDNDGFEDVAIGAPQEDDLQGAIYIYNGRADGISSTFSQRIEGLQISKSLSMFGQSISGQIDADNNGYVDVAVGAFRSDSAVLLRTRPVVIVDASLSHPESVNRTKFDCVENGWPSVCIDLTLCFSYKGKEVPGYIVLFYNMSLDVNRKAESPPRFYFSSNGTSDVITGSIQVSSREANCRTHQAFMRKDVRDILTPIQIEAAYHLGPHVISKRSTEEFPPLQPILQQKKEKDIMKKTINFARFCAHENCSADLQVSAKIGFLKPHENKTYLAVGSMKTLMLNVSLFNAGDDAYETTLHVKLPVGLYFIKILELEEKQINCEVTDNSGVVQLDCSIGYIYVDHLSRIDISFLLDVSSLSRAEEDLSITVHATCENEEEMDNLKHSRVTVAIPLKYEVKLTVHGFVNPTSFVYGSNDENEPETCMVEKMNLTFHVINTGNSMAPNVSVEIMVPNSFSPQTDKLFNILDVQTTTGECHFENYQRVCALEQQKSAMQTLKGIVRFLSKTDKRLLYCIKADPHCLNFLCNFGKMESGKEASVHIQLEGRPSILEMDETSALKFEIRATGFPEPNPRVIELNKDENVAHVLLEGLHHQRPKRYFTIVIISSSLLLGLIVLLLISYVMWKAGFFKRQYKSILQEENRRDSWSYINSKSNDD", "UniProt P26010, 20-798 limits assumed": "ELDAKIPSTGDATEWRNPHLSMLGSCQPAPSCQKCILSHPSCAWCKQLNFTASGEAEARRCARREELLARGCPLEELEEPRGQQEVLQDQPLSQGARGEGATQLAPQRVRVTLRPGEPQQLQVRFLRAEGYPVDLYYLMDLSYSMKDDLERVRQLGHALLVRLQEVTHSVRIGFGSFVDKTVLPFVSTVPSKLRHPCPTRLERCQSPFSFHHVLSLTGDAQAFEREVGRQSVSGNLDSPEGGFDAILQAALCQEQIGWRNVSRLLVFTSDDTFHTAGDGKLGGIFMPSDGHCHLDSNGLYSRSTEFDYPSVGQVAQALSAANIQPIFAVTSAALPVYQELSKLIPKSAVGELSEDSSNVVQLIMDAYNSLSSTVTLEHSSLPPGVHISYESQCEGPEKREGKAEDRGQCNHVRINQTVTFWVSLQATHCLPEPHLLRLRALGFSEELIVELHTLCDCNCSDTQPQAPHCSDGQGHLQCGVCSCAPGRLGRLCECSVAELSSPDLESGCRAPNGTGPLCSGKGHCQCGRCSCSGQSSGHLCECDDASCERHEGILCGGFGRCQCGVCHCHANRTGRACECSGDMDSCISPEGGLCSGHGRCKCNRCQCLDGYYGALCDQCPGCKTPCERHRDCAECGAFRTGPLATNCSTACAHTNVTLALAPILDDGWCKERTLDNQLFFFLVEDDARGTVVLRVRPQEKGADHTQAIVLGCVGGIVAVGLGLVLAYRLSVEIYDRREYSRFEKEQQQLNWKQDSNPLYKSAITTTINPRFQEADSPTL"},
  "source": "patent US11116760B2",
  "about": "(Gilead Sciences, Inc., priority 2018, dated 2021)",
  "molecular_target": "α4β7 integrin (Homo sapiens (Human), UniProt P13612+P26010)",
  "experiment": "α4β7 Integrin Cell Capture Assay",
  "settings": "read-out: α4β7 EC50; RPMI8866 cells captured on MadCAM-1 extracellular domain-coated plate",
  "data": [
    {"smiles": "CC[C@@H](Nc1cc(C)c(C(=O)N[C@@H](Cc2ccc(-n3c(=O)c4ccncc4n(C)c3=O)c3ncccc23)C(=O)O)c(F)c1)C(F)(F)F", "note": "[Example 439]", "values": [
      {"measurement": "EC50", "result": 0.076, "unit": "nM"}
    ]}
  ]
}
